Measurements as given in PMC6559209.

Target: lactate dehydrogenase (LDH)
Experiment: MST; 10 mM H2O2
Conditions: domain or fragment

Substance: YlHD, hydrophilic domain of the Yarrowia lipolytica group 3 LEA protein
- Kd: 1860 nM
